Assay results from patent US20110306597A1, “Nicotinamide Derivatives” (priority 2008, published 2011).

Sequences of proteins named here, by UniProt entry; tags and fusion partners are left off.
UniProt O60760, whole entry: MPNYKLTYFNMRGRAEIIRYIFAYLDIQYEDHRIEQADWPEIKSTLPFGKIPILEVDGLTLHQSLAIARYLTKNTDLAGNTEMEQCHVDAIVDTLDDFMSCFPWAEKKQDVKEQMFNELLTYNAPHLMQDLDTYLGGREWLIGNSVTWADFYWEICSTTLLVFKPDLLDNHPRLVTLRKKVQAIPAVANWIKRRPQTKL

Target: human recombinant H-PGDS (Homo sapiens, UniProt O60760)
Experiment: Fluorescence Intensity h-PGDS TBA Enzyme Assay
Details: 1:175,000 human recombinant H-PGDS, highest inhibitor concentration typically 1 μM

IC50: 49.2 nM
Compound: COC(=O)C(Cc1ccc(Cl)cc1)NC(=O)c1ccc(-c2cccc(C)c2)nc1 (stereo not shown)
